According to US20250084169A1 (published 2025):

Tests used:
[1] = target: T1, recombinant human Fc gamma RIIb/c (CD32b/c) (human, UniProt P31994 46-217); assay: BLI (Octet), FcγR on sensor, bivalent format
T1 construct: also called FcRγIIb; FcgRIIb/c
T1 sequence (looked up): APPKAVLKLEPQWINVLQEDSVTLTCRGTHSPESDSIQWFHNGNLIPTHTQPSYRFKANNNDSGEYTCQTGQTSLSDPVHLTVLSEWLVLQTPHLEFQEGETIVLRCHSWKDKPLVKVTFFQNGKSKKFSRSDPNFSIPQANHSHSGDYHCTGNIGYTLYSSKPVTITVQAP

[2] = target: T2, recombinant human Fc gamma RIIa (CD32a) 131H (human, UniProt P12318 36-218); assay: BLI (Octet), FcγR on sensor, bivalent format
T2 construct: also called FcRγIIa
T2 sequence (looked up): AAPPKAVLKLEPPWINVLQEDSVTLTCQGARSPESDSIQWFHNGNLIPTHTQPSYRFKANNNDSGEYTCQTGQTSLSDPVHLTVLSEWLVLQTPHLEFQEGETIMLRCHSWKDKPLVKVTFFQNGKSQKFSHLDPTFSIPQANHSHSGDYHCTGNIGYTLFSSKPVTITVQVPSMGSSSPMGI

[3] = target: T3, recombinant human Fc gamma RIIa (CD32a) 131R (human, UniProt P12318 36-218); assay: BLI (Octet), FcγR on sensor, bivalent format
T3 construct: also called Fc gamma RIIa (CD32) (Arg167)
T3 sequence (looked up): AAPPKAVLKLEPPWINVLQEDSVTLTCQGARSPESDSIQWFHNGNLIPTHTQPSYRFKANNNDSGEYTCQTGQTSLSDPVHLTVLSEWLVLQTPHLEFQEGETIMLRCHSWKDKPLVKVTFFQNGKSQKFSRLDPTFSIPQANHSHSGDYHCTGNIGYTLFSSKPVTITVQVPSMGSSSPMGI

[4] = target: T4, recombinant human Fc gamma RIIIb (CD16b) (human, UniProt O75015 17-200); assay: BLI (Octet), FcγR on sensor, bivalent format
T4 construct: also called FcRγIIIb

[5] = target: T5, recombinant human Fc gamma RIIIa (CD16a) 158F (human, UniProt P08637 17-208); assay: BLI (Octet), FcγR on sensor, bivalent format
T5 construct: also called FcRγIIIa

[6] = target: T6, recombinant human Fc gamma RIIIa (CD16a) 158V (human, UniProt P08637 17-208); assay: BLI (Octet), FcγR on sensor, bivalent format
T6 construct: also called FcRγIIIa; FcgRIIIa 158 V

[7] = target: T7, recombinant human Fc gamma RI (CD64) (human, UniProt P12314 16-288); assay: BLI (Octet), FcγR on sensor, bivalent format
T7 construct: also called FcRγI; FcgRI

[8] = target: T8, cynomolgus monkey Fc gamma receptor CD32a (cynomolgus monkey); assay: SPR (Carterra), monovalent format
T8 construct: also called CD32a (cynomolgus)

[9] = target: T9, cynomolgus monkey Fc gamma receptor CD16 (cynomolgus monkey, UniProt Q8SPW2 17-208); assay: SPR (Carterra), monovalent format
T9 construct: also called CD16 (cynomolgus)

[10] = target: T10, cynomolgus monkey Fc gamma receptor CD32b (cynomolgus monkey); assay: SPR (Carterra), monovalent format
T10 construct: also called CD32b (cynomolgus)

[11] = target: T8, cynomolgus monkey Fc gamma receptor …; assay: BLI (Octet), cynomolgus FcγR on sensor
[12] = target: T9, cynomolgus monkey Fc gamma receptor CD16; assay: BLI (Octet), cynomolgus FcγR on sensor
[13] = target: T10, cynomolgus monkey Fc gamma receptor …; assay: BLI (Octet), cynomolgus FcγR on sensor
[14] = target: T11, cynomolgus monkey CD19 on cells (cynomolgus monkey, UniProt A0A2K5W8L9 20-557); assay: flow cytometry on PBMC B cells, anti-human Fcγ-PE
T11 sequence: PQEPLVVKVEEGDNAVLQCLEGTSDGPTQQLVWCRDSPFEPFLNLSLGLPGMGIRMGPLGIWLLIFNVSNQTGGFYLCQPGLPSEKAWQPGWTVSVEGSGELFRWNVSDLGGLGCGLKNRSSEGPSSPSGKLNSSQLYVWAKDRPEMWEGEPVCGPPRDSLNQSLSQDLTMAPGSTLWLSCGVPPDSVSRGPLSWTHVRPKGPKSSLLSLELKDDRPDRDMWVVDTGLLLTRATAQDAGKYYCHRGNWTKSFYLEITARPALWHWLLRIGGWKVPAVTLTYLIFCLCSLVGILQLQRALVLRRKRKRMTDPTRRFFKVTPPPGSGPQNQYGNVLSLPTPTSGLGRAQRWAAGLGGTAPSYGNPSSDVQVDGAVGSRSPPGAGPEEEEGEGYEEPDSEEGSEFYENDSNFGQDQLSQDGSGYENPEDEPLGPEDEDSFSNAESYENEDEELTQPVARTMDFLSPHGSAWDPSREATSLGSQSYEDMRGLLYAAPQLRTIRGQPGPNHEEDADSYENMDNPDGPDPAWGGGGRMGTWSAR

human CD19 on cells = target: T12, human CD19 on cells (human, UniProt P15391 20-556); assay: flow cytometry on PBMC B cells, anti-human Fcγ-PE
T12 construct: also called cell surface CD19
T12 sequence (looked up): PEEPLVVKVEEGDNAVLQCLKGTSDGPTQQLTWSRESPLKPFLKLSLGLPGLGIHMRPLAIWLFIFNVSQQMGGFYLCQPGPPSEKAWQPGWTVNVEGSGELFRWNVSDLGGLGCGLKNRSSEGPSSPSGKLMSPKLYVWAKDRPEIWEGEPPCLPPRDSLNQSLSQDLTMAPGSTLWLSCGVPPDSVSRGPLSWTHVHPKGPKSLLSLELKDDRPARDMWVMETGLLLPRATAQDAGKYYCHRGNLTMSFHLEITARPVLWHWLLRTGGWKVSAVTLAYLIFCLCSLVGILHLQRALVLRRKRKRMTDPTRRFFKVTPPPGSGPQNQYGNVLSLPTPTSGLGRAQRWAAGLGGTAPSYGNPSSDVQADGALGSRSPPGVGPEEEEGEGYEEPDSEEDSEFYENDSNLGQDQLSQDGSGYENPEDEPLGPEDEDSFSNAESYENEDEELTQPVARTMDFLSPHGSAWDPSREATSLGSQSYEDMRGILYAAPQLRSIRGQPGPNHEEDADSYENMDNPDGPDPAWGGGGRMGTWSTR

B1: Tafasitamab-cxix (research grade biosimilar) (antibody, human IgG1, kappa)
heavy: EVQLVESGGGLVKPGGSLKLSCAASGYTFTSYVMHWVRQAPGKGLEWIGYINPYNDGTKYNEKFQGRVTISSDKSISTAYMELSSLRSEDTAMYYCARGTYYYGTRVFDYWGQGTLVTVSSASTKGPSVFPLAPSSKSTSGGTAALGCLVKDYFPEPVTVSWNSGALTSGVHTFPAVLQSSGLYSLSSVVTVPSSSLGTQTYICNVNHKPSNTKVDKKVEPKSCDKTHTCPPCPAPELLGGPDVFLFPPKPKDTLMISRTPEVTCVVVDVSHEDPEVQFNWYVDGVEVHNAKTKPREEQFNSTFRVVSVLTVVHQDWLNGKEYKCKVSNKALPAPEEKTISKTKGQPREPQVYTLPPSREEMTKNQVSLTCLVKGFYPSDIAVEWESNGQPENNYKTTPPMLDSDGSFFLYSKLTVDKSRWQQGNVFSCSVMHEALHNHYTQKSLSLSPG
light: not shown
notes: also called Tafasitamab-S239D/1332E; Protein ID 22-02
- Fold (KD of rituximab / KD) [1]: 28.5 fold
- Fold (KD of rituximab / KD) [2]: 7.5 fold
- Fold (KD of rituximab / KD) [3]: 11.5 fold
- Fold (KD of rituximab / KD) [4]: 23.3 fold
- Fold (KD of rituximab / KD) [5]: 12.7 fold
- Fold (KD of rituximab / KD) [6]: 6.7 fold
- Fold (KD of rituximab / KD) [7]: 2 fold
- Fold (KD of MabThera / KD) [8]: 41.1 fold
- Fold (KD of MabThera / KD) [9]: 96.6 fold
- Fold (KD of MabThera / KD) [10]: 27.5 fold
- Fold (KD of rituximab / KD) [11]: 32.8 fold
- Fold (KD of rituximab / KD) [12]: 8.6 fold
- Fold (KD of rituximab / KD) [13]: 23.9 fold
- Emax [14]: 32000 gMFI
- Emax (human CD19 on cells): 55000 gMFI
